Results on 1 substance are retold here after article PMC6624406 (British Journal of Clinical Pharmacology, 2019).

On the set-up of this data set: species or system human. The conditions noted are these: in vivo.

Several values for one entry are separate records, joined by “and”; a condition that tells them apart may be missing. Identical values can stand only once.

With buprenorphine, the “C24, adjusted geometric mean (90% CI)” value is 780 (638–953) pg/mL and 1082 (949–1234) pg/mL; the “C24 GMR (90% CI)” value is listed as 1.39 (1.18–1.63); the “Cmax, adjusted geometric mean (90% CI)” value was 4187 (3835–4572) pg/mL and 5206 (4534–5977) pg/mL; the “Increase in Cmax, AUCτ and C24” value is listed as 24–39%.
